# In publication PMC7723054:
# This is one part of the list.
# T1: LIN28A (human?, UniProt Q9H9Z2 1-209)
# T1 sequence: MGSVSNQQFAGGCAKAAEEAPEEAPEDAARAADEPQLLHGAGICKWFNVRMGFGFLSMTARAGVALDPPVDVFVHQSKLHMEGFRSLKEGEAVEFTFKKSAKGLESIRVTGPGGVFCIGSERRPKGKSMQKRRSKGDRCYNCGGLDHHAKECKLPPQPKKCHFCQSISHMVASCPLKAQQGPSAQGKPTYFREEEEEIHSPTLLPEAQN
# T2: CIRBP (Homo sapiens, UniProt Q14011 1-172)
# T2 sequence: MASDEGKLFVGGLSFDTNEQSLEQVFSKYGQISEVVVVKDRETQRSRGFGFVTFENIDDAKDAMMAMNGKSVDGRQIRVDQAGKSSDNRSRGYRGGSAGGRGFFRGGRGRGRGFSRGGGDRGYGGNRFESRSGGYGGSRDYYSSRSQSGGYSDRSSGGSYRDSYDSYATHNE
# T3: DHX36 (Homo sapiens, UniProt Q9H2U1 1-1008)
# T3 sequence: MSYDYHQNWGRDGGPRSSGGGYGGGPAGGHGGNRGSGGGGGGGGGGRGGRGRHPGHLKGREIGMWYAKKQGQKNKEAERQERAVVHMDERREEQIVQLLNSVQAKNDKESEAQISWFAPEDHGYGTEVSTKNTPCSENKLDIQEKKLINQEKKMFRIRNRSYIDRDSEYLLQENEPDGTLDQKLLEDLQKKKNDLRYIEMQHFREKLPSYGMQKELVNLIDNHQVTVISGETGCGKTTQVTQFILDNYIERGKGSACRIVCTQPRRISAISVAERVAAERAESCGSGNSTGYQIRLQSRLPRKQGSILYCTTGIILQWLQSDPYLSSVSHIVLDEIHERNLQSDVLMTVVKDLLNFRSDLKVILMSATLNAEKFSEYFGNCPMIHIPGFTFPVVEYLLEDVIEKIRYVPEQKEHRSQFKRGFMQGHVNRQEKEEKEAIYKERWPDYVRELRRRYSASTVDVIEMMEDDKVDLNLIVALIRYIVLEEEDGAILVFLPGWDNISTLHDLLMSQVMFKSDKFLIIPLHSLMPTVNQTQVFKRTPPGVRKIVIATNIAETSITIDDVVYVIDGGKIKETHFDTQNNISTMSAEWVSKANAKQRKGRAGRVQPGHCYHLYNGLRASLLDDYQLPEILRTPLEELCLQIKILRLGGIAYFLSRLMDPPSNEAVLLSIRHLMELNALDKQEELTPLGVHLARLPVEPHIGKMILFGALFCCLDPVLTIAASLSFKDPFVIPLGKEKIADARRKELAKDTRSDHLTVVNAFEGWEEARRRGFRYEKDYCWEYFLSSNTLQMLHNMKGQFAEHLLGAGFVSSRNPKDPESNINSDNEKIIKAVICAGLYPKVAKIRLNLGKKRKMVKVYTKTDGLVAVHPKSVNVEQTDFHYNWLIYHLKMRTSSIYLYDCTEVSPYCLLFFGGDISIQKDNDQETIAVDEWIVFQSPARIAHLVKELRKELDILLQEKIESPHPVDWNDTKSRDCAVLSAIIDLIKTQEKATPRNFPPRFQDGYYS
# B1: hsa-mir-6886 (structured_RNA)
# RNA: GGGAUGGCAACGGAGGACACCCACUAUAGGUGUACGAAGUUUCAGCGGCUCCUGGCGCUGAUGCCGCUGAAGCUUCGUGCAC
# B2: hsa-mir-6837 (structured_RNA)
# RNA: GGGAACUAUAUGGCCGCGCCUGUCAUUCGGUGUACGAAGUUUCAGCAAUGUCAGGGCCACCCCUGACCUUGCUGAAGCUUCGUGCAC
# B3: hsa-mir-6843 (structured_RNA)
# RNA: GGGACCGCUGAAACAUGUCAGUCACUGGGGUGUACGAAGUUUCAGCCCCUGGGGAGCUGCUGCAGGCAGCAGGUGGGCGGGACGCCAGCAGGCUGUCUAGCUGUUCCCAUGAUGGGCUGAAGCUUCGUGCAC
# B4: hsa-mir-5195 (structured_RNA)
# RNA: GGGAUGGCCGGGAACACCUACUUUCAGUGGUGUACGAAGUUUCAGCGGAUGGGAGACCUGACCCAUCCGCUGAAGCUUCGUGCAC
# B5: hsa-mir-1273c (structured_RNA)
# RNA: GGGACGGCAGAGAAGGUAUGCCAUUAAUGGUGUACGAAGUUUCAGCUGUCUUUUUUUUUUUCUGAGACAGCUGAAGCUUCGUGCAC
# B6: hsa-mir-548ac (structured_RNA)
# RNA: GGGAGAAGGCCGCGCUAUCAUCACAAAGGGUGUACGAAGUUUCAGCUUUGCUAUUUUUUUUUAAUGGCAAAGCUGAAGCUUCGUGCAC
# B7: hsa-mir-4716 (structured_RNA)
# RNA: GGGACUGGCAGAGUUGUCGAUGCUGCAUGGUGUACGAAGUUUCAGCCCUUCUGUAUACAUGUAUACAGGAGGAAGGGCUGAAGCUUCGUGCAC
# B8: hsa-mir-378a (structured_RNA)
# RNA: GGGAAAUGCACAUAGAGUGUCCUCCUUGGGUGUACGAAGUUUCAGCGUGUGUUACCUAGAAAUAGCACUGCUGAAGCUUCGUGCAC
# B9: hsa-mir-4323 (structured_RNA)
# RNA: GGGAAUGCGUAGCCCGUCCCCAGUUAAAGGUGUACGAAGUUUCAGCGUGUCUGGAGACGCCAGGCAGCGCUGAAGCUUCGUGCAC
# B10: hsa-mir-6722 (structured_RNA)
# RNA: GGGAAAUCGUUGGCGAGUACGAAAACCCGGUGUACGAAGUUUCAGCAUGCAUGGCUGGUGGCGGCGUGCAGGCUGAAGCUUCGUGCAC
# B11: hsa-mir-4734 (structured_RNA)
# RNA: GGGACCUUGAACGGACGAGCGACUUUCAGGUGUACGAAGUUUCAGCCACCUCCCGGCCCGGAGCUGGCUGAAGCUUCGUGCAC
# B12: hsa-mir-551a (structured_RNA)
# RNA: GGGAAAGGAGAAGUGCGUCAUGCUAUUGGGUGUACGAAGUUUCAGCGGGCCAGUCUGACCGUUUCUAGGCGGCUGAAGCUUCGUGCAC
# B13: hsa-mir-1469 (structured_RNA)
# RNA: GGGAGUUGUGAAUAUCGUCGGACCUGUGGGUGUACGAAGUUUCAGCCUCCGGGUUGGGGGCUGAAGCUUCGUGCAC
# B14: hsa-mir-588 (structured_RNA)
# RNA: GGGACGCAGUACCGAGCUGAAAACACAGGGUGUACGAAGUUUCAGCGAACACUAUUCCAUUGUGUUCGCUGAAGCUUCGUGCAC
# B15: hsa-mir-4440 (structured_RNA)
# RNA: GGGAACGUAGGCUUGUGACUAAAACAACGGUGUACGAAGUUUCAGCUGGCUUGCACCGUGACUCCCUCUCACCAAGCAAGUGUCGCUGAAGCUUCGUGCAC
# B16: hsa-mir-3646 (structured_RNA)
# RNA: GGGAAGUAAGCGUAAUAAGCACCUAGUUGGUGUACGAAGUUUCAGCUUUUCAUGACAACCCUAUAUGGGAAAAUGUUGUGAAAAGCUGAAGCUUCGUGCAC
# B17: hsa-mir-4669 (structured_RNA)
# RNA: GGGAAGUGCUAUCACCAAGCCUCUACGCGGUGUACGAAGUUUCAGCUCCAGGCAUCUGUGUCUGGCUGAAGCUUCGUGCAC
# B18: hsa-mir-4800 (structured_RNA)
# RNA: GGGAGCUAGCGUUUAACCCCUAACUGGCGGUGUACGAAGUUUCAGCGAAGGAAGGCAAGGCUGUCUGUCCAUCGCUGAAGCUUCGUGCAC
# B19: hsa-mir-6090 (structured_RNA)
# RNA: GGGAAAAGCGGUCAACGCACCGUAACGUGGUGUACGAAGUUUCAGCGCCCUGGGCCGGGCGAUGUCCGCUUGGGGGGCUGAAGCUUCGUGCAC
# B20: hsa-mir-4471 (structured_RNA)
# RNA: GGGAGCAAGCGCGAUCAUAUCGACCCAUGGUGUACGAAGUUUCAGCUCCAUGAAAAGAACCCAUGGGGCUGAAGCUUCGUGCAC
# B21: hsa-mir-592 (structured_RNA)
# RNA: GGGAACAGUAGGCGAGACAUCUUGAGACGGUGUACGAAGUUUCAGCAUGUGUUGUGAUGGCACAGCGUGCUGAAGCUUCGUGCAC
# B22: hsa-mir-5587 (structured_RNA)
# RNA: GGGACCCUCAACAUGGGGUAUCCCUGGAGGUGUACGAAGUUUCAGCGGACUCAGCCCUGUGCUGAGCCCGCUGAAGCUUCGUGCAC
# B23: hsa-mir-4444-1_4444-2 (structured_RNA)
# RNA: GGGAUCACGAUACGAGUCUCCAGAGAACGGUGUACGAAGUUUCAGCCGGUCCCAUAUUGAACUCGGCUGAAGCUUCGUGCAC
# B24: hsa-mir-6844 (structured_RNA)
# RNA: GGGAACCCGGGAGGGUCUAAAUAAAGACGGUGUACGAAGUUUCAGCAGAAAUCAAGCUAUUUGCUAAAAGUUCUGCUGAAGCUUCGUGCAC
# B25: hsa-mir-548ao (structured_RNA)
# RNA: GGGACCGAAGGGUCCACACCGAUAUACUGGUGUACGAAGUUUCAGCUUUUGCAGUUGAAAGUAAUGGCAAAGGCUGAAGCUUCGUGCAC
# B26: hsa-mir-454 (structured_RNA)
# RNA: GGGAAGAGACGUUCCAGUUCGCUCUCCCGGUGUACGAAGUUUCAGCCUCUGCUGUGUAAAUAGUUCUGAGUAGUGCUGAAGCUUCGUGCAC
# Target: T1, LIN28A
# Test: FOREST: bead pull-down of RNA structure library v1, barcode microarray; U1A/LIN28A: 20 mM HEPES pH 7.5, 80 mM KCl, 20 mM NaCl, 10% glycerol, 2 mM DTT, 0.1 ug/uL BSA, 4 C; BG4/CIRBP/DHX36: 10 mM Tris-HCl pH 7.5, 100 mM KCl (or LiCl),; high values mean tight binding
row,Binder,binding signal [z-score]
1,B1,-0.734
2,B2,-0.73
3,B3,-0.685
4,B4,-0.734
5,B5,-0.75
6,B6,-0.703
7,B7,-0.707
8,B8,-0.751
9,B9,-0.721
10,B10,-0.739
11,B11,-0.701
12,B12,-0.706
13,B13,-0.685
14,B14,-0.726
15,B15,-0.722
16,B16,-0.698
17,B17,-0.726
18,B18,-0.723
19,B19,-0.713
20,B20,-0.717
21,B21,-0.706
22,B22,-0.73
23,B23,-0.752
24,B24,-0.707
25,B25,-0.696
26,B26,-0.75

# Target: T2, CIRBP
# Test: as above
row,Binder,binding signal [z-score]
1,B1,-1.18
2,B2,0.833
3,B3,-1.01
4,B4,-0.779
5,B5,-0.579
6,B6,0.453
7,B7,-0.141
8,B8,-0.803
9,B9,-0.307
10,B10,0.114
11,B11,-0.256
12,B12,0.433
13,B13,-2.01
14,B14,0.233
15,B15,0.339
16,B16,0.167
17,B17,0.622
18,B18,0.271
19,B19,-0.602
20,B20,-0.845
21,B21,-0.141
22,B22,0.311
23,B23,-0.539
24,B24,1.16
25,B25,-1.36
26,B26,-0.331

# Target: T3, DHX36
# Test: as above
row,Binder,binding signal [z-score]
1,B1,-0.093
2,B2,0.722
3,B3,1.88
4,B4,0.879
5,B5,0.914
6,B6,-0.419
7,B7,-0.967
8,B8,-0.574
9,B9,-0.0528
10,B10,0.116
11,B11,-0.81
12,B12,0.581
13,B13,-0.201
14,B14,-1.44
15,B15,-0.795
16,B16,-0.5
17,B17,-0.368
18,B18,-0.0599
19,B19,-0.36
20,B20,-0.0541
21,B21,-0.757
22,B22,-0.681
23,B23,-1.08
24,B24,-0.0949
25,B25,-1.55
26,B26,-0.568
